From patent US20200022967A1, “Use of 2-carboxamide cycloamino urea derivatives in the treatment of EGFR dependent diseases or diseases that have acquired resistance to agents that target EGFR family members” (Novartis AG, priority 2010, published 2020)

Experiments:
[1] = test system: NCI-N87 tumors; assay: NCI-N87 xenograft in CB17 SCID mice, Compound A alone and with lapatinib (Example 6); format: in vivo
Method: Using the study protocol described in Example 4, the effect of Compound A was studied as monotherapy and in combination with lapatinib in NCI-N87 gastric cancer CB17 SCID mouse xenograft model. […] The NCI-N87 cells were harvested with 5× trypsin. Eight days after tumor implantation (on Day 1 of the study), mice with an individual tumor volume of 88-196 mm^3 were sorted into 10 groups of ten mice with a group mean tumor volume of 143-149 mm^3.
A fresh lapatinib suspension was prepared once weekly, stored at 4° C., and protected from light.
Where applicable, data is presented as mean±SEM. […] Time to endpoint (TTE) is calculated by the equation: TTE=(log10(endpoint volume)−b)/m, where TTE is expressed in days, endpoint volume is in mm3, b is the intercept and m is the slope of the line obtained by linear regression of a log-transformed tumor growth data set. Treatment efficacy was determined from Tumor Growth Delay (TGD), which was defined as the increase in the median time to endpoint (TTE) for a treatment group compared to the control group (TGD=T−C), expressed in days, or as a percentage of the median TTE of the control group (% TGD=((T−C)/C)×100), wherein T=median TTE for a treatment group and C=median TTE for the designated control group.
Statistical and graphical analyses was performed with Prism 3.03 (GraphPad) for Windows. […] Survival was analyzed by the Kaplan-Meier method. […]

[2] = test system: NCI-N87 tumors; assay: NCI-N87 xenograft in CB17 SCID mice, Compound A alone and with trastuzumab (Example 4); format: in vivo
Method: Experiments were performed in female CB17 SCID mice (Fox Chase SCID®, CB17/lcr-Prkdc^scid, Charles River) approximately 7-8 weeks of age and having a body weight (BW) range of 14.7-21.2 g at treatment start. All animals were fed ad libitum water (reverse osmosis, 1 ppm CI) and NIH 31 Modified and Irradiated Lab Diet® consisting of 18.0% crude protein, 5.0% crude fat, and 5.0% crude fiber. The mice were housed on irradiated Enrich-O'cobs™ Laboratory Animal Bedding in static microisolators on a 12-hour light cycle at 21-22° C. and 40-60% humidity.
NCI-N87 cells (obtained from the American Type Culture Collection), which are of gastric origin and ErbB2 amplified, were maintained as exponentially growing cultures in RPMI-1640 medium supplemented with 10% fetal bovine serum, 2 mM glutamine, 100 units/mL penicillin G sodium, and 100 μg/mL streptomycin sulfate. The tumor cells were cultured in tissue culture flasks in a humid incubator at 37° C., in an atmosphere of 5% CO2 and 95% air. Cells were harvested with 1× trypsin and suspended at a concentration of 5×10^7 cells/mL in cold phosphate-buffered saline with 50% Matrigel. Each mouse was injected subcutaneously in the right flank with 1×10^7 cells (0.2 mL cell suspension). Tumor volumes were measured with calipers and determined according to the formula: width^2×length/2, and tumor weight estimated with the assumption that 1 mg is equivalent to 1 mm^3 of tumor volume. Nine days after tumor implantation (on Day 1 of the study), mice with individual tumor volumes of 126-320 mm^3 were sorted into 12 groups of eight mice with a group mean tumor volume of 231-239 mm^3.
Compound A was formulated in NMP/PEG300/Solutol HS15/deionized water (10:30:20:40% vol/vol). The Compound was fully dissolved in NMP. Then, PEG300 and liquified Solutol were added (in sequence with vortexing after addition of each reagent). Water was added prior to administration to the animals. Fresh dosing solutions were prepared weekly and stored at 4° C., protected from light.
Trastuzumab (Herceptin®, Genentech, 21 mg/mL) was freshly diluted with saline (Vehicle 2) on each day of dosing.
(§1) Treatments started 9 days post tumor cell implantation and lasted for 30 consecutive days (or until tumor volume=2000 mm^3). […] Groups 4, 9 and 12 were stopped early.
A treatment that achieves a T/C value of 40% or less would be classified as potentially therapeutically active.
Where applicable, data is presented as mean±SEM. Statisticial and graphical analyses was performed with Prism 3.03 (GraphPad) for Windows. For all tests, the level of significance of differences was done using ANOVA, with Bartlett's test; and a post-hoc Dunnett's multiple comparison test compared the mean change for each drub-treated group to the mean for Group 1. […] The significance of differences between the median volume changes for drug-treated groups and Group 1 was analyzed post hoc with Dunn's multiple comparison test. The two-tailed statistical analyses were conducted at P=0.05. Prism summarizes test results as not significant (ns) at P>0.05, significant (symbolized by “*”) at 0.01<P≤0.05, very significant (symbolized by “**”) at 0.001<P≤0.01, and extremely significant (symbolized by “***”) at P≤0.001.

[3] = test system: HBCx-5 xenograft tumor; assay: HBCx-5 breast cancer xenograft, antitumor activity (Example 5); format: in vivo, mice; conditions: trastuzumab 10 mg/kg i.p. once a week for 6 weeks, single agent; not significant
Method: Compound A was suspended at mg/ml in 0.5% methylcellulose (Sigma Aldrich, St. Louis, Mo.). It was homogenized by stirring vortexing and sonication. The suspension was stored at 4° C. for 7 days protected from light. Trastuzumab (Herceptin®, Roche) solution at 1 mg/ml was prepared on each administration day. Stock solution at 21 mg/ml was diluted just before administration at 1 mg/ml with sterile water for injection. Capecitabine (Xeloda®, Roche) at […] was kept at 4° C. protected from light. Capecitabine pellets were crushed and suspended in NaCl 0.9%.
Compound A was administered daily by oral gavage (p.o.) at 50 mg/kg for 42 days, alone or in combination with trastuzumab. Trastuzumab was administered at 10 mg/kg, i.p., once a week for 6 weeks. Dose was body weight adjusted at each injection.
Capecitabine was administered by oral gavage (p.o.) at […], five times per week for two weeks (i.e., five consecutive dosing days/week). After a one week rest, a second treatment cycle was performed.

[4] = test system: BT-474 tumors; assay: BT474 orthotopic xenograft, Compound A and trastuzumab combination (Example 3); format: in vivo, mice
Method: The Compound was fully dissolved in NMP. Then, PEG300 and liquified Solutol were added (in sequence with vortexing after addition of each reagent).
Where applicable, data is presented as mean±SEM.

[5] = Body weight nadir and deaths in NCI-N87 trastuzumab study (Example 4); format: in vivo, mice
Description: as §1

[6] = Group 5 (8 animals): trastuzumab 3 mg/kg i.p. twice weekly
[7] = Group 6 (8 animals): trastuzumab 10 mg/kg i.p. twice weekly

For CS(=O)(=O)CCNCc1ccc(-c2ccc3ncnc(Nc4ccc(OCc5cccc(F)c5)c(Cl)c4)c3c2)o1 [lapatinib], which T-C ([1]; Group 4: lapatinib 50 mg/kg p.o. b.i.d.) is on record?
Its T-C is 21.5 days.

What about the “Median TTE” value ([1]; Group 5 (10 animals): lapatinib 100 mg/kg p.o. once daily for 21 days, control 26.2, vs G1 **) of the same compound?
Its value is 42.6 days.

Which results are given for trastuzumab [reference compound]?
Regressions CR (complete regression) [2, 6]: CR: 0; Regressions PR (partial regression) [2, 6]: PR: 0,; T/C or T/T0 ([2]; Group 5 (8 animals): trastuzumab 3 mg/kg i.p. twice weekly, vs G1 ns): 50%; Regressions CR (complete regression) [2, 7]: CR: 0; Regressions PR (partial regression) [2, 7]: PR: 0,; T/C or T/T0 ([2]; Group 6 (8 animals): trastuzumab 10 mg/kg i.p. twice weekly, vs G1 **): 12%; T/C [3]: 81.44%; Change Tumor Volume ([4]; A: trastuzumab 3 mg/kg i.p. three times per week, control C 584.2): 209.2; A/C ([4]; change tumor volume ratio, trastuzumab 3 mg/kg vs control): 0.358; T/C ([4]; trastuzumab 3 mg/kg i.p. three times per week, single agent): 35.8%; antitumor effect ([4]; trastuzumab 10 mg/kg i.p. three times per week, single agent, p<0.05 Mann-Whitney): statistically significant antitumor effect; Deaths (TR/NTR) [5, 6]: 0; Deaths (TR/NTR) [5, 7]: 0
